SMILES strings stand for the structures. Where two headings read alike, the source gives them in different places.

The chains behind the UniProt entries cited, without tags or fusion partners.
UniProt P49840, whole entry: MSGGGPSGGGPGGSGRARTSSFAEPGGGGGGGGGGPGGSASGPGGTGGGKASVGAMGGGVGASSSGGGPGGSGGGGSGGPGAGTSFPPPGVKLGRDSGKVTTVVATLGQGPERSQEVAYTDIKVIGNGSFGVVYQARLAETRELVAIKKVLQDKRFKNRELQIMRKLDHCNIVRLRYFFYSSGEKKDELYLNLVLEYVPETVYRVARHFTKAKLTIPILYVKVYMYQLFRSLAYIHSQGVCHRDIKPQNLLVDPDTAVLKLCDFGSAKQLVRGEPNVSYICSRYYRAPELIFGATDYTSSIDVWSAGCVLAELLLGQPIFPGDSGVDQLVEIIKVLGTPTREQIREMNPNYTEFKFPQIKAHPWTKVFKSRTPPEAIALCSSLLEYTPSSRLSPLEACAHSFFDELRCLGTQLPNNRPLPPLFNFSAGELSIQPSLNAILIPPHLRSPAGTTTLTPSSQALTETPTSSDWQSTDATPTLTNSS
UniProt P49841, whole entry: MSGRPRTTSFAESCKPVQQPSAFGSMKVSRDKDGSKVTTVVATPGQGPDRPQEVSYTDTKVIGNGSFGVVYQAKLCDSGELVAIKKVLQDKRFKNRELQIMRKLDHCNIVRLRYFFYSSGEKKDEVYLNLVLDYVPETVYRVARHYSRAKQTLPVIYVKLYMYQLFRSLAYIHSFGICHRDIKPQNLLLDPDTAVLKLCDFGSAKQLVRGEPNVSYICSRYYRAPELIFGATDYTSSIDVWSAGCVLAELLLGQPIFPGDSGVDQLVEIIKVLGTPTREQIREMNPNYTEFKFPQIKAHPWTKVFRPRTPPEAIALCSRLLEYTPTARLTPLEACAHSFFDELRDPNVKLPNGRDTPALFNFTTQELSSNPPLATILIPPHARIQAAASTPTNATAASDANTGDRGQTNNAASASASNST

As a reminder, the IC50 is the concentration that gives 50% inhibition.

Data set [1] concerns the target GSK3a (GST-full length GSK3a) (Homo sapiens, UniProt P49840). In words: GSK3a TR-FRET kinase inhibition assay. As to the method:
(§1) TR-FRET assay was performed in a white, 384 well, low volume, flat bottom plate (Grenier). After a 30 minute preincubation in assay buffer with the indicated concentration of compound, the kinase activity was initiated by the addition of the substrates. 1 nM GSK3a (GST-full length GSK3a [SignalChem G08-10G]) or 1 nM GSK3b (GST-full length GSK3b: [SignalChem G08-9G]) were then incubated at ambient temperature for 100 minutes in 10 μl of 50 mM Tris, pH 7.5, 20 mM MgCl2, 0.05 mM DTT, 100 μg/ml BSA and 1% DMSO, with 200 nM biotinylated peptide substrate (biotinylated and S645 phosphorylated glycogen synthase 631-650) and ATP (e.g., at 2 μM, 4 μM, 10 μM, 100 μM, or 1 mM). The kinase activity was quenched with 2 μl of 250 mM EDTA. A 10 μl volume of 40 nM Strepavidin-d2, 2 nM […] antibody in TR-FRET Detection Buffer (Invitrogen) was then added. After 60 min at room temperature the plate was read on Envision plate reader using Ex: 340 nm, Em: 615 nm and […]. The normalized 665/615 Signal ratio versus log compound concentration was analyzed by XLFIT to yield IC50 values.
A general note: TR-FRET usually uses a lanthanide donor and a delayed reading to cut background.

The target of data set [2] is GSK3b (GST-full length GSK3b) (Homo sapiens, UniProt P49841). Briefly: GSK3b TR-FRET kinase inhibition assay. As to the method: as §1
Data set [3] is described as follows: Human liver microsomal stability. As to conditions: human liver microsomes. As to the method: Stability of compound (5 μL of a 10 mM DMSO solution) in human liver microsomes was tested in duplicate by incubating compound at 1 μM for 60 minutes at 37° C. Compound level at 60 minutes was compared to level at 0 minutes, and percent remaining was calculated. Order by selecting Microsomal Stability in Prometheus, checking boxes for desired species. Assay Controls: microsomes with NADPH without compound-matrix interference. Microsomes plus compound without NADPH—non-enzymatic instability.

Data set [4] concerns MDR1-MDCK cell monolayers. In words: MDR1/MDCK permeability assay. As to conditions: for MDCK Permeability (MDR1-MDCK); Mean; Papp(A-B) (10^−6 cm/s): A to B; for MDCK Permeability (MDR1-MDCK); Mean; Papp(B-A) (10^−6 cm/s): B to A. The source says:
The MDR1/MDCK assay is run at WuXi and Absorption Systems. This assay is used to determine the blood-brain barrier (BBB) penetration potential of a test compound using MDR1-MDCK cell monolayers. Catalog number EA203.
• The percent recovery of the test compound from the Transwell® wells containing MDR1-MDCK cell monolayers • The apparent permeability (Papp) in both directions • The efflux ratio (Papp B to A)/(Papp A to B) • The blood-brain barrier penetration potential classification: • High when • Papp A to B≥3.0×10^−6 cm/s, and efflux<3.0 • Moderate when • Papp A to B≥3.0×10^−6 cm/s, and 10>efflux≥3.0 • Low when either • Papp A to B≥3.0×10^−6 cm/s, and […], or when • Papp A to B<[…].
• Test compound at 5 μM in HBSSg with maximum DMSO concentration not greater than 1%.
• Confluent monolayers of MDR1-MDCK cells, 7 to 11 days old.
• Receiver well with 1% BSA in modified Hanks buffer (HBSSg) • Apical and basolateral side at pH 7.4 • Dose two monolayers in each direction (N=2) • Dose apical side for (A to B) assessment • Dose basolateral side for (B to A) assessment • Sample both apical and basolateral sides at 120 minutes • Determine the concentrations of test compound using a generic LC-MS/MS method with a minimum 4 point calibration curve.
• The quality of the cell monolayer batch is verified using control compounds before monolayers are released for use • The quality of each monolayer used in the assay is verified by a TEER measurement and by calculating the Papp for a control compound.

Setting [5] is: read-out: GSK3a TR-FRET 1 mM ATP Average IC50, 1 mM ATP, Table 3.
Where [6] appears, read: read-out: GSK3b TR-FRET 1 mM ATP Average IC50, 1 mM ATP, Table 3.
[7] abbreviates: read-out: GSK3α TR-FRET 4 μM ATP GMean IC50, 4 μM ATP.
Setting [8] is: read-out: GSK3β TR-FRET 2 μM ATP GMean IC50, 2 μM ATP.
[9] abbreviates: read-out: GSK3α TR-FRET 1 mM ATP Average IC50, 1 mM ATP, Table 5.
Setting [10] is: read-out: GSK3β TR-FRET 1 mM ATP Average IC50, 1 mM ATP, Table 5.

`Cc1cnc2c(c1)C(C)(c1ccccc1)C1=C(CC(C)(C)CC1=O)N2` (centres unmarked): the IC50 fell in the range of 100 to 1000 nM in data set [1] (read-out: GSK3a 100 μM ATP Average IC50, 100 μM ATP); 5000 to 20000 nM in data set [1] (setting [5]); 100 to 1000 nM in data set [2] (read-out: GSK3b 100 μM ATP Average IC50, 100 μM ATP); 1000 to 5000 nM in data set [2] (setting [6]). The “Microsome Stability (Human) (DMPK_BIIB); Mean; in vitro t1/2” value (shortened to “Microsome Stability (Human) (DMPK_BIIB)”) in data set [3] (Table 3) is reported as 111 min. The “MDCK Permeability (MDR1-MDCK); Mean; Papp(A-B) (10^−6 cm/s)” value in data set [4] (Table 3) is on record as 30 10^−6 cm/s. For the same compound, the “MDCK Permeability (MDR1-MDCK); Mean; Papp(B-A) (10^−6 cm/s)” value in data set [4] (Table 3) was 16 10^−6 cm/s. For the same compound, the MIDCK Permeability (MDR1-MDCK); Mean; P. Ratio(B-A/A-B) Efflux Ratio in data set [4] (Papp B-A/A-B, Table 3) is 0.56.
In the case of `CCC1(c2ccccc2)C2=C(Nc3ncccc31)C(F)C(C)(C)CC2=O` (single isomer, unassigned), in data set [1] (setting [7]), the IC50 lay in the range of 100 to 1000 nM. Further, in data set [2] (setting [8]), the IC50 is 100 to 1000 nM. In addition, in data set [3] (Table 4), the “Microsome Stability (Human) (DMPK_BIIB)” value is given as 14 min. Also, in data set [4] (Table 4), the “MDCK Permeability (MDR1-MDCK); Mean; Papp(A-B) (10^−6 cm/s)” value is 19 10^−6 cm/s and the “MDCK Permeability (MDR1-MDCK); Mean; Papp(B-A) (10^−6 cm/s)” value is listed as 28 10^−6 cm/s. In data set [4] (Papp B-A/A-B, Table 4), the MDCK Permeability (MDR1-MDCK); Mean; P. Ratio(B-A/A-B) Efflux Ratio was 1.5.
Consider `COc1cncc(F)c1-c1cccc(C2(C)C3=C(CC(C)(C)CC3=O)Nc3ncc(CC(C)(C)C)cc32)c1` (single isomer, unassigned), for which the IC50 in data set [1] (setting [5]) and in data set [2] (setting [6]) was 5000 to 20000 nM throughout.
As for `CC1(C)CC(=O)C2=C(C1)Nc1ncc(CF)c(C#N)c1C2(C)c1ccccc1` (single isomer, unassigned) [614A], the IC50 in data set [1] (setting [9]) and in data set [2] (setting [10]) was 100 to 1000 nM in each case.
In the case of `CC1(C)CC2=C(C(=O)N1)C(C)(c1cccc(S(C)(=O)=O)c1)c1cc(C(F)(F)F)cnc1N2` (single isomer, unassigned) [651B], the IC50 in data set [1] (setting [9]) and in data set [2] (setting [10]) was 5000 to 20000 nM in each case.
`CCC1(c2ccccc2)C2=C(Nc3ncccc31)C(F)C1(CCC1)CC2=O` (single isomer, unassigned) [1009A]: the IC50 in data set [1] (setting [7]) is under 100 nM. Also, the IC50 in data set [2] (setting [8]) is under 100 nM. In addition, in data set [3] (Table 4), the “Microsome Stability (Human) (DMPK_BIIB)” value stood at 6.3 min. For the same compound, in data set [4] (Table 4), the “MDCK Permeability (MDR1-MDCK); Mean; Papp(A-B) (10^−6 cm/s)” value is on record as 34 10^−6 cm/s and the “MDCK Permeability (MDR1-MDCK); Mean; Papp(B-A) (10^−6 cm/s)” value was 35 10^−6 cm/s. Besides, the MDCK Permeability (MDR1-MDCK); Mean; P. Ratio(B-A/A-B) Efflux Ratio in data set [4] (Papp B-A/A-B, Table 4) stood at 1.
`CCC1(c2ccccc2)C2=C(Nc3ncccc31)C(F)C1(CCC1)CC2=O` (single isomer, unassigned) [1009B]: the IC50 in data set [1] (setting [7]) and in data set [2] (setting [8]) was 100 to 1000 nM in each case. In addition, the “Microsome Stability (Human) (DMPK_BIIB)” value in data set [3] (Table 4) is given as 11 min. Besides, the “MDCK Permeability (MDR1-MDCK); Mean; Papp(A-B) (10^−6 cm/s)” value in data set [4] (Table 4) was 32 10^−6 cm/s. Also, in data set [4] (Table 4), the “MDCK Permeability (MDR1-MDCK); Mean; Papp(B-A) (10^−6 cm/s)” value is on record as 47 10^−6 cm/s. In data set [4] (Papp B-A/A-B, Table 4), the MDCK Permeability (MDR1-MDCK); Mean; P. Ratio(B-A/A-B) Efflux Ratio was 1.5.
With `CCC1(c2ccccc2)C2=C(Nc3ncccc31)C(F)C1(CCC1)CC2=O` (single isomer, unassigned) [1009C], the IC50 in data set [1] (setting [7]) and in data set [2] (setting [8]) was over 5000 nM in each case. Besides, in data set [3] (Table 4), the “Microsome Stability (Human) (DMPK_BIIB)” value is 2.1 min. The “MDCK Permeability (MDR1-MDCK); Mean; Papp(A-B) (10^−6 cm/s)” value in data set [4] (Table 4) is given as 23 10^−6 cm/s. Besides, the “MDCK Permeability (MDR1-MDCK); Mean; Papp(B-A) (10^−6 cm/s)” value in data set [4] (Table 4) is given as 21 10^−6 cm/s. For the same compound, the MDCK Permeability (MDR1-MDCK); Mean; P. Ratio(B-A/A-B) Efflux Ratio in data set [4] (Papp B-A/A-B, Table 4) is 0.9.
With `CCC1(c2ccccc2)C2=C(Nc3ncccc31)C(F)C1(CCC1)CC2=O` (single isomer, unassigned) [1009D], in data set [1] (setting [7]), the IC50 is over 5000 nM. In addition, the IC50 in data set [2] (setting [8]) was over 5000 nM. Besides, in data set [3] (Table 4), the “Microsome Stability (Human) (DMPK_BIIB)” value is listed as 1.6 min. Further, in data set [4] (Table 4), the “MDCK Permeability (MDR1-MDCK); Mean; Papp(A-B) (10^−6 cm/s)” value was 23 10^−6 cm/s and the “MDCK Permeability (MDR1-MDCK); Mean; Papp(B-A) (10^−6 cm/s)” value is on record as 28 10^−6 cm/s. The MDCK Permeability (MDR1-MDCK); Mean; P. Ratio(B-A/A-B) Efflux Ratio in data set [4] (Papp B-A/A-B, Table 4) is 1.3.

For the origin of these results see US20260103465A1, “GLYCOGEN SYNTHASE KINASE 3 INHIBITORS AND USES THEREOF” (The Broad Institute, Inc., priority 2023, published 2026).
